This is an account of results in patent US20240158446A1, “CYCLIC COMPOUND HAVING SELECTIVE INHIBITORY ACTION ON KRAS OVER HRAS AND NRAS” (CHUGAI SEIYAKU KABUSHIKI KAISHA, priority 2021, published 2024).

For experiment [1], the target named is GDP-bound HRAS wild-type protein (Homo sapiens, UniProt P01112). Kind of experiment: Binding to HRAS by surface plasmon resonance (SPR), Single Cycle Kinetics. The following applies: GDP-bound HRAS wild-type protein vs GDP-bound KRAS wild-type protein. For orientation: SPR reads the build-up and loss of mass on a sensor chip optically.
Experiment [2] deals with GDP-bound NRAS wild-type protein (Homo sapiens, UniProt P01111). As to the kind of experiment: Binding to NRAS by surface plasmon resonance (SPR), Single Cycle Kinetics. Particulars: GDP-bound NRAS wild-type protein vs GDP-bound KRAS wild-type protein.
The test system of experiment [3] is human lung cancer strain NCI-H441. The following applies: read-out: NCI-H441 IC50; NCI-H441 cells, four days, CellTiter-Glo. (In general: In ATP-based viability assays light output follows the ATP content of the culture.);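 further: cell proliferation inhibition after four days measured by CellTiter-Glo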
In experiment [4] the target is GDP-bound KRAS wild-type protein (Homo sapiens, UniProt P01116). Kind of experiment: Binding to KRAS by surface plasmon resonance (SPR), Single Cycle Kinetics. The following applies: KRAS KD (M), 1:1 binding model.

The IC50 is the point on the concentration scale where inhibition reaches its midpoint. Consider `CCC[C@H]1C(=O)N[C@@H]([C@@H](C)CC)C(=O)N(C)CC(=O)N(C)[C@H]2C/C=C\CCN(C2=O)[C@@H](Cc2ccc(C)cc2)C(=O)N(C)CC(=O)N[C@@H](CCc2cc(F)c(C(F)(F)F)c(F)c2)C(=O)N2CC3(CC3)C[C@H]2C(=O)NC2(CC(C)(C)C2)C(=O)N(C)[C@@H](CC(C)C)C(=O)N(C)[C@H](C(=O)N(C)C)CC(=O)N1C` [PP3004], for which the “HRAS/KRAS (ratio of KD value for HRAS to KD value for KRAS)” value in experiment [1] is “A (a compound having 10 or more and less than 20 is denoted as A)”. The “NRAS/KRAS (ratio of KD value for NRAS to KD value for KRAS)” value in experiment [2] was “A (a compound having 10 or more and less than 20 is denoted as A)”. For the same compound, in experiment [3], the IC50 was found to be 19.2 nM.

With `CC[C@H](C)[C@@H]1NC(=O)[C@H](COC)N(C)C(=O)C[C@@H](C(=O)N(C)CC)N(C)C(=O)[C@H](C2CCCC2)N(C)C(=O)C2(CC(C)(C)C2)NC(=O)[C@@H]2C[C@H](C)CN2C(=O)[C@H](CCc2ccc(C(F)(F)F)c(OC)c2)NC(=O)CN(C)C(=O)[C@H](Cc2ccc(C)cc2)N2CC/C=C\C[C@@H](C2=O)N(C)C(=O)CN(C)C1=O` [PP2504], in experiment [3], the IC50 was 12.9 nM.

In general, Kd refers to a measure of binding affinity in units of concentration. As for `CCO[C@@H]1C[C@H]2C(=O)NC3(CCC3)C(=O)N(C)[C@@H](C3CCCC3)C(=O)N(C)[C@H](C(=O)N(CC)CC)CC(=O)N(C)[C@@H](CC3CC3)C(=O)N[C@@H]([C@@H](C)CC)C(=O)N(C)CC(=O)N(C)[C@H]3C/C=C\CCN(C3=O)[C@@H](Cc3ccc(C(F)(F)F)cc3)C(=O)N(C)CC(=O)N[C@@H](CCc3cc(F)c(C(F)(F)F)c(F)c3)C(=O)N2C1` [PP1307], the Kd in experiment [4] was 1.4e-10 M.

Regarding `CCO[C@@H]1C[C@H]2C(=O)NC3(CCC3)C(=O)N(C)[C@@H](C3CCCC3)C(=O)N(C)[C@H](C(=O)N(C)C)CC(=O)N(C)[C@@H](CC(C)C)C(=O)N[C@@H]([C@@H](C)CC)C(=O)N(C)CC(=O)N(C)[C@H]3CC(C)=C(C)CN(C3=O)[C@@H](Cc3ccc(C(F)(F)F)cc3)C(=O)N(C)CC(=O)N[C@@H](CCc3cc(F)c(C(F)(F)F)c(F)c3)C(=O)N2C1` [PP1046], in experiment [1], the “HRAS/KRAS (ratio of KD value for HRAS to KD value for KRAS)” value was “C (A compound having a KD ratio of 0.1 or more and less than 3 is denoted as C)”. In addition, the “NRAS/KRAS (ratio of KD value for NRAS to KD value for KRAS)” value in experiment [2] is “C (A compound having a KD ratio of 0.1 or more and less than 3 is denoted as C)”. In experiment [3], the IC50 stood at 109 nM.
